The values that follow are results of earlier work, collected in patent US20030013883A1, “Tropane analogs binding to monoamine transporters” (priority 2000, published 2003).

Sequences of proteins named here, by UniProt entry; tags and fusion partners are left off.
UniProt P23977, whole entry: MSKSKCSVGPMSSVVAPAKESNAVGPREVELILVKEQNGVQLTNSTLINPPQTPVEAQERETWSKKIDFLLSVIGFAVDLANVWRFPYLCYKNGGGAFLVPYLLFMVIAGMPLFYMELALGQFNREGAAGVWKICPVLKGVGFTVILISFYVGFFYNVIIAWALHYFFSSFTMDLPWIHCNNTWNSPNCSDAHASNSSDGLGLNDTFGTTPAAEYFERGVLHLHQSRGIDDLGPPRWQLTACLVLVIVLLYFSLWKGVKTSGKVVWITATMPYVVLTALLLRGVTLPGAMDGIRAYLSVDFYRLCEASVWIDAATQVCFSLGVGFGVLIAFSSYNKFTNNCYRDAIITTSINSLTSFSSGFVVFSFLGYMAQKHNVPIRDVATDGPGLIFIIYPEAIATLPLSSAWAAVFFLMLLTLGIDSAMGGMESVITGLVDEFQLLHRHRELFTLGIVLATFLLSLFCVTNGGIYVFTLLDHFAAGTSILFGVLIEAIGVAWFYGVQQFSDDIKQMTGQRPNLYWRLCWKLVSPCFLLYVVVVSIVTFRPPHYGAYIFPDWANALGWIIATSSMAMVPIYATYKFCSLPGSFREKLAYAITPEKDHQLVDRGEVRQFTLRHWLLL

The term Kd denotes a measure of binding affinity in units of concentration.

The data set addresses dopamine transporter (DAT) (Rattus norvegicus, UniProt P23977). Also on record: For DAT assays, corpus striatum tissue from rat forebrain was rapidly dissected on ice; from tissue; host or cells: rat corpus striatum. As to conditions: radioligand constant used in Cheng-Prusoff conversion; cited from earlier work.

On to `c1ccc(CCCN2CCN(CCOC(c3ccccc3)c3ccccc3)CC2)cc1` [[^3H]GBR-12935], for which the Kd was 1 nM.
